Patent publication US11945799B2, “4-ethynylpyridine derivatives useful as GCN2 inhibitors” (IP2IPO INNOVATIONS LIMITED, priority 2020, dated 2024)
Where two headings read alike, the source gives them in different places.

By UniProt entry, the sequences of proteins in these tests, tags left out.
UniProt Q9P2K8, whole entry: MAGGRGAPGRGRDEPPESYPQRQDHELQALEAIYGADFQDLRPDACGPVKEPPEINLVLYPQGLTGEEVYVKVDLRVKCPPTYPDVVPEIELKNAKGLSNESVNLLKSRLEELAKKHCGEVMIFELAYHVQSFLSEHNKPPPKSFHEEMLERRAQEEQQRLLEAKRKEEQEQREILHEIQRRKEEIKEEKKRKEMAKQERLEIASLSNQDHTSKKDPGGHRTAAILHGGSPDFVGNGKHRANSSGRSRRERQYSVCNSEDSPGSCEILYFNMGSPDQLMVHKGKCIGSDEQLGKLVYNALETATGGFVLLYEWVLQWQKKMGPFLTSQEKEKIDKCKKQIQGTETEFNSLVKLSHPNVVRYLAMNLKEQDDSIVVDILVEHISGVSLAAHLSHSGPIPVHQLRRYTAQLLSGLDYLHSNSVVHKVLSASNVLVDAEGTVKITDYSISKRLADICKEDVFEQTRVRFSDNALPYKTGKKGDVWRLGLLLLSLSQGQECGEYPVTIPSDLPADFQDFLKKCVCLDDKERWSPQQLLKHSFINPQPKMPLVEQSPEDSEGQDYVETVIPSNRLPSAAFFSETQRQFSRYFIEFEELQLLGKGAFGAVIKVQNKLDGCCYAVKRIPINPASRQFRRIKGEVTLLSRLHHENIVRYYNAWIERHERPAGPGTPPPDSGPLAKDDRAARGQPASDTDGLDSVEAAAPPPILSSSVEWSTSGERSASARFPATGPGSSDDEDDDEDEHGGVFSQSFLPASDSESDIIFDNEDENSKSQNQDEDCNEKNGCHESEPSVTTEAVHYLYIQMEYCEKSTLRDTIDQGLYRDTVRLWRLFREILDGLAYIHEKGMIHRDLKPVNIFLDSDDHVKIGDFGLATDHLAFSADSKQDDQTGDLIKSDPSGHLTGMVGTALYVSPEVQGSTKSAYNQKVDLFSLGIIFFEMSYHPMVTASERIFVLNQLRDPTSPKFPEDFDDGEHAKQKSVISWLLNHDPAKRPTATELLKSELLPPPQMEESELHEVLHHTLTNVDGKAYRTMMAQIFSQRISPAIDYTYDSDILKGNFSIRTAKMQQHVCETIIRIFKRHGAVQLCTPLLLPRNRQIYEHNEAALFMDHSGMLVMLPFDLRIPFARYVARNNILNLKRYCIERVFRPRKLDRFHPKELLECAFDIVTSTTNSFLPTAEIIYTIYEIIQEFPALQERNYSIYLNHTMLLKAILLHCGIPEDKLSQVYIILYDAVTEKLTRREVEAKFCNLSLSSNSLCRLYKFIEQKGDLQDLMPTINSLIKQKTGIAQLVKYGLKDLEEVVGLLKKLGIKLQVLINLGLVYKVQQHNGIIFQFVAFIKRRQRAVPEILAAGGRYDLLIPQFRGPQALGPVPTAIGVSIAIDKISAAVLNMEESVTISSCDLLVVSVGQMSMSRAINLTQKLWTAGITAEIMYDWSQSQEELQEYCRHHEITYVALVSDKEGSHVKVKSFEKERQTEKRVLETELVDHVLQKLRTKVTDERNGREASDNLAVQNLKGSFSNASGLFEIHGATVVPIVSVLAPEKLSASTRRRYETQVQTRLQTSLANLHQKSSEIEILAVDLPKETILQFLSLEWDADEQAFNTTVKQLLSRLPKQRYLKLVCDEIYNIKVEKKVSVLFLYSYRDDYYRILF

Assays:
[1] = Kinetic solubility in PBS buffer pH 7.4; conditions: PBS buffer pH 7.4, 90 minutes at room temperature, from 10 mM DMSO stock
[2] = target: full-length human GCN2 enzyme (Homo sapiens, UniProt Q9P2K8); assay: GCN2 enzyme inhibition, LanthaScreen TR-FRET Kinase Activity assay (10 μM and 300 μM ATP); type: biochemical; conditions: for IC50 / Ki: mean of replicate assays

Row | SMILES | Kinetic Solubility [1] | GCN2 inhibitory activity (in words) [2] | IC50 ([2]; read-out: GCN2 IC50 (nM) 10 uM ATP, 10 uM ATP) | IC50 ([2]; read-out: GCN2 IC50 (nM) 300 uM ATP, 300 uM ATP) | Ki ([2]; read-out: GCN2 Ki (nM) 10 uM ATP, 10 uM ATP) | Ki ([2]; read-out: GCN2 Ki (nM) 300 uM ATP, 300 uM ATP)
1 | Nc1ncc(C#Cc2nccc(NS(=O)(=O)c3cc(Cl)ccc3Cl)c2F)cn1 | 227.3 µg/mL | extremely poor activity | – | – | – | –
2 | COc1ncc(Cl)cc1S(=O)(=O)Nc1ccc(F)c(C#Cc2cnc3[nH]ncc3c2)c1F | 3.9 µg/mL | – | 5.8 nM | 31 nM | 1.8 nM | 0.5 nM
